Measurements published in US12103920B2, “Cereblon binding compounds, compositions thereof, and methods of treatment therewith” (Celgene Corporation, priority 2020, dated 2024).

The chains behind the UniProt entries cited, without tags or fusion partners. Where a name states a change or a piece, a line headed by the entry shows the natural chain unless it says otherwise.
UniProt P10275: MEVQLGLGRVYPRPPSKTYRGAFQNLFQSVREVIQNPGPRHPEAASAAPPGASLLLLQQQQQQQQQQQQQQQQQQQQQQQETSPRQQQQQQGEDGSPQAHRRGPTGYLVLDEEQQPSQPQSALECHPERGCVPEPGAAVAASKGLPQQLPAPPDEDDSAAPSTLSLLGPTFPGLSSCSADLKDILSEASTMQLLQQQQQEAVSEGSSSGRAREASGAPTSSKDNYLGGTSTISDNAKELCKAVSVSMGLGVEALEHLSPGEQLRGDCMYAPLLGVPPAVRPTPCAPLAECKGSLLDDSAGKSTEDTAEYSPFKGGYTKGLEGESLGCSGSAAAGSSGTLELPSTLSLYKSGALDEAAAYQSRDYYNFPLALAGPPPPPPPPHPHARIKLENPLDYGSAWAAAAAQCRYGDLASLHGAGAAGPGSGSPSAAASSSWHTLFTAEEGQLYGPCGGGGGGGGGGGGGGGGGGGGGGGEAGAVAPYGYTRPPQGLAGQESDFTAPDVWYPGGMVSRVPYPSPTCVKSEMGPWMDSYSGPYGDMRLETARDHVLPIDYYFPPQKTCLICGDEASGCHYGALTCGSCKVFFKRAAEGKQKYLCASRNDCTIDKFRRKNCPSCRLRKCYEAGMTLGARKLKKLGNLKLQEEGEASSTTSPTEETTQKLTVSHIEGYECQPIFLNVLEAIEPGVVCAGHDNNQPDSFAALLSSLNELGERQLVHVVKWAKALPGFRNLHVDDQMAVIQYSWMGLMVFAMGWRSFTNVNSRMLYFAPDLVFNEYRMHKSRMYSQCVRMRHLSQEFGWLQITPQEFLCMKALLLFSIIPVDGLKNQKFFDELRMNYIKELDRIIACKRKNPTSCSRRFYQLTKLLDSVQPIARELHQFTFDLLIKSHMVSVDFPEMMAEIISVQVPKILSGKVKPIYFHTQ

Molecular target: T1, AR protein in VCaP cells (Homo sapiens, UniProt P10275)
T1 construct: endogenous in cells; host or cells: VCaP cells
Test: VCAP AR Degradation Assay
Format: cell-based
Settings: 24 h, AR ELISA
Method: VCAP AR Degradation Assay. Test compounds were pre-dispensed into a Corning CellBind 96-well clear bottom plate (Cat #3300) using an acoustic dispenser to make a 10-point concentration series at 1:3 dilution for each compound. The final top concentration of each compound was 5 μM. DMSO at a final concentration of 0.1% was used as a control. VCaP cells cultured in DMEM with 8% fetal bovine serum (FBS) were seeded at 50K cells per well in a 200 μL volume into the compound plate and incubated at 37° C. in a CO2 incubator for 24 h. The medium was carefully removed from the cells and the plate was placed on ice. […] AR levels in compound-treated wells were normalized to that of DMSO control and expressed as percent of control (PoC) (y). A Four Parameter Logistic Model (Sigmoidal Dose-Response Model) was used to determine the compound's DC50, and EC50, using the following equation: y=(A+((B−A)/(1+((C/x)^D)))) • A=YMin (lowest AR level normalized to DMSO control in response to compound treatment, as determined by curve fit) • B=YMax (maximum AR level as determined by curve fit) • C=EC50 • D=Hill Slope • x=compound concentration • EC50=the concentration of compound when y=(YMax−YMin)/2 • DC50=the concentration of the compound when y=50% of DMSO control (50% AR degradation) • y=AR protein level normalized to DMSO control […]

In the case of “N-(3-Chloro-5-((2,6-dioxopiperidin-3-yl)amino)phenyl)-2-((trans)-4-(3-((1r,4S)-4-(3-(4-cyano-3-(trifluoromethyl)phenyl)-5,5-dimethyl-4-oxo-2-thioxoimidazolidin-1-yl)cyclohexyl)propyl)-2,6-dimethylpiperazin-1-yl)acetamide [Cmpd 37]”, the DC50 (concentration at 50% of DMSO control (50% AR degradation)) is reported as 10 to 100 nM and the Y (lowest measured AR level normalized to DMSO control) is reported as “* (0<Y≤15%)”.
